{"source": "paper PMC9728921", "about": "“Characterization of a KDM5 small molecule inhibitor with antiviral activity against hepatitis B virus” (PLOS ONE, 2022)", "key": {"H3K4me3:H3 [1]": {"test_system": "H3K4me3:H3", "test": "Tissue PD (H3K4me3:H3 by ELISA), cynomolgus monkey", "format": "in vivo", "settings": "monkeys; p.o. once daily for seven days; 24 hours after last dose", "experimental": "Histones were enriched from tissue and PBMC samples using the AbCam total histone extraction kit (Cambridge, UK; ab113476) according to the manufacturer’s protocol after cell/tissue dissociation with an IKA T10 TURRAX homogenizer (Wilmington, NC; EW-04720-50). Histones were enriched from 500,000 to 750,000 PHH. PHH monolayers were washed once with cold (4°C) 1X DPBS (Dulbecco’s phosphate buffered saline; 21-031-CV, Corning Inc.). Cold triton extraction buffer (TEB): 1X DPBS, 0.5% triton X-100 (Sigma-Aldrich, T9284), 2 mM phenylmethylsulfonyl fluoride (PMSF; Thermo Fisher Scientific, 36978), was added to the cell monolayer at a density of 1 x 10^6 cells/mL. After 10-minute incubation in TEB at 4°C, the cell monolayer was scraped and cells were pelleted by centrifuged at 1200 rpm at 4°C for 10 minutes. The cell pellets were washed again in TEB by centrifugation at 1200 rpm at 4°C for 10 minutes. […]\nAn indirect ELISA assay was used to measure amounts of H3K4me3 relative to total H3 (H3K4me3:H3) extracted from tissue, PBMC, or PHH samples. Amounts of H3, H3K4me3, and non-specific background from the secondary antibody (blank absorbance) were measured for each sample in independent ELISA wells. […] Absorbance of each well was measured at 450 nm within five minutes using a SpectraMax Plus 384 Microplate Reader (Molecular Devices; PLUS 384)."}, "HBV GTC": {"test_system": "HBV GTC", "test": "GS-5801 antiviral activity in PXB hepatocytes in vitro", "format": "cell-based, Hepatitis B virus", "settings": "GTC HBV-infected hepatocytes; treated every 3–4 days; Day 21", "experimental": "Hepatocytes were isolated by two-step collagenase perfusion from PXB mice as described. Hepatocytes were resuspended in DMEM medium (Thermo Fisher Scientific) containing 2% FBS (Biosera, Kansas City, MO), 20 mM HEPES (Thermo Fisher Scientific), 44 mN NaHCO3 (Wako Chemicals, Richmond, VA), 100 IU/mL penicillin (Thermo Fisher Scientific), and 100 ug/mL streptomycin (Thermo Fisher Scientific) and plated at a density of 4 x 10^5 cells/well of a BioCoat Collagen I 24 well plate (Corning). […] Medium containing fresh compound was replaced every 3 days for a total of six doses of compound and levels of extracellular HBsAg and HBeAg were measured on Day 21.\nQuantification of HBsAg and HBeAg levels was performed by SRL Inc. (Tokyo, Japan) based on the Chemiluminescent immunoassay (CLIA) using an […] instrument and the […] […]"}, "H3K4me3:H3 [2]": {"test_system": "H3K4me3:H3", "test": "Global H3K4me3:H3 ratio by ELISA in HBV-infected PHH", "format": "cell-based, human", "experimental": "For the continuous dose experiment, cells received one dose of GS-5801 on days 0, 3, 6, and 10 and medium was not replenished until the next dose day. For the pulse dose regimen, medium containing compound was removed after two hours incubation and replaced with fresh maintenance medium every three to four days. Cells in the pulse dose experiment received only one dose of compound (Day = 0). Histones were enriched from tissue and PBMC samples using the AbCam total histone extraction kit (Cambridge, UK; ab113476) according to the manufacturer’s protocol after cell/tissue dissociation with an IKA T10 TURRAX homogenizer (Wilmington, NC; […] Histones were enriched from 500,000 to 750,000 PHH. PHH monolayers were washed once with cold (4°C) 1X DPBS (Dulbecco’s phosphate buffered saline; 21-031-CV, Corning Inc.). Cold triton extraction buffer (TEB): 1X DPBS, 0.5% triton X-100 (Sigma-Aldrich, T9284), 2 mM phenylmethylsulfonyl fluoride (PMSF; Thermo Fisher Scientific, 36978), was added to the cell monolayer at a density of 1 x 10^6 cells/mL. After 10-minute incubation in TEB at 4°C, the cell monolayer was scraped and cells were pelleted by centrifuged at 1200 rpm at 4°C for 10 minutes. The cell pellets were washed again in TEB by centrifugation at 1200 rpm at 4°C for 10 minutes. The resulting cell pellet was re-suspended in cold (4°C) 0.2 Normal hydrochloric acid (HCl; Sigma-Aldrich, 343102) at a density of ~ 1 x 10^7 cells/mL and incubated at 4°C for 30 minutes. After incubation, HCl extractions were pelleted by centrifugation at 1200 rpm for 5 minutes at 4°C and supernatant containing the enriched histones was collected. Total protein concentration of all samples following histone enrichment was determined using a bicinchoninic acid (BCA) assay (Thermo Fisher Scientific; 23225). […] Absorbance of each well was measured at 450 nm within five minutes using a SpectraMax Plus 384 Microplate Reader (Molecular Devices; PLUS 384)."}, "H3K4me3:H3 [3]": {"test_system": "H3K4me3:H3", "test": "Tissue PD (H3K4me3:H3 by ELISA), rat", "format": "in vivo", "experimental": "Male Wistar Han rats (n = 3 per dose group) were dosed p.o. once daily for seven days with GS-5801 at 10, 30, or 100 mg/kg and sacrificed 24 hours after the last dose. A second group of male Wistar Han rats (n = 3 per dose group) were dosed p.o. once daily for seven days with GS-5801 at 10, 30, or 100 mg/kg and taken off drug for seven days before animals were sacrificed.\nHistones were enriched from tissue and PBMC samples using the AbCam total histone extraction kit (Cambridge, UK; ab113476) according to the manufacturer’s protocol after cell/tissue dissociation with an IKA T10 TURRAX homogenizer (Wilmington, NC; EW-04720-50). Histones were enriched from 500,000 to 750,000 PHH. PHH monolayers were washed once with cold (4°C) 1X DPBS (Dulbecco’s phosphate buffered saline; 21-031-CV, Corning Inc.). Cold triton extraction buffer (TEB): 1X DPBS, 0.5% triton X-100 (Sigma-Aldrich, T9284), 2 mM phenylmethylsulfonyl fluoride (PMSF; Thermo Fisher Scientific, 36978), was added to the cell monolayer at a density of 1 x 10^6 cells/mL. After 10-minute incubation in TEB at 4°C, the cell monolayer was scraped and cells were pelleted by centrifuged at 1200 rpm at 4°C for 10 minutes. The cell pellets were washed again in TEB by centrifugation at 1200 rpm at 4°C for 10 minutes. The resulting cell pellet was re-suspended in cold (4°C) 0.2 Normal hydrochloric acid (HCl; Sigma-Aldrich, 343102) at a density of ~ 1 x 10^7 cells/mL and incubated at 4°C for 30 minutes. After incubation, HCl extractions were pelleted by centrifugation at 1200 rpm for 5 minutes at 4°C and supernatant containing the enriched histones was collected.\nAn indirect ELISA assay was used to measure amounts of H3K4me3 relative to total H3 (H3K4me3:H3) extracted from tissue, PBMC, or PHH samples. Amounts of H3, H3K4me3, and non-specific background from the secondary antibody (blank absorbance) were measured for each sample in independent ELISA wells. Briefly, each histone extraction from tissue or PBMC lysates was diluted in 50 mM Na2CO3 (Sigma-Aldrich; 223484), pH 9.5 coating buffer and 50 μl of each diluted sample was added to 384-well plates (Greiner, Kremsmünster, Austria; 781061) in duplicate. A coating concentration for tissue and PBMC histone extracts was used such that the H3 and H3K4me3 OD measurements were in the linear range for the H3 and H3K4me3 antibodies. After plates were incubated overnight at 4°C to allow for coating of histone samples, plates were blocked for one hour at room temperature (RT) in 100 μl 5% skimmed milk (Fluka; 70166)/1X DPBS (Gibco; 70011–044) % w/v solution. Plates were washed three times with 0.1% Tween-20 (Amresco; 0777)/1 X DPBS % v/v solution (DPBST) and 50 μl/well of 0.05 μg/ml H3 (Sino Biological; 11231-RP02) or 0.5 μg/ml H3K4me3 (Millipore; 07473) primary antibodies diluted in 1X DPBS were added to the ELISA plates and incubated for one hour at RT. After primary antibody incubation, plates were washed 3 times with 100 μl/well PBST and 50 μl/well of an AbCam secondary antibody (ab137914) diluted to 0.05 μg/ml in 1X PBS was added to the ELISA plates and incubated for one hour at RT. Plates were washed five times with 100 μl/well DPBST and 50 μl/well 3,3′,5,5′-tetramethylbenzidine (TMB) substrate solution (Sigma; T0440) was added to each plate. […] Absorbance of each well was measured at 450 nm within five minutes using a SpectraMax Plus 384 Microplate Reader (Molecular Devices; PLUS 384)."}, "H3K4me3:H3 [4]": {"test_system": "H3K4me3:H3", "test": "Liver H3K4me3:H3 by ELISA in HBV-infected humanized mice", "format": "in vivo, uPA-SCID mice with humanized livers", "settings": "Day 56", "experimental": "The in vivo and in vitro hepatocyte infection model portions of the study were performed by PhoenixBio (Higashi-Hiroshima, Japan). […] Mice were infected with HBV GTC virus (PhoenixBio; PBB004, Lot #160205) and had serum HBV titer levels greater than 1.0E+08 copies/mL seven days prior to study initiation. HBV-infected mice were treated once daily (p.o.) for seven days (Day 0–6) with deionized water for acclimation. Mice (n = 8 per treatment group) received vehicle (deionized water), 30 mg/kg, or 100 mg/kg of GS-5801 p.o. once daily on Days 7 to 13, Days 21 to 27, Days 35 to 41, and Days 49 to 55. Fifty μL of blood was collected from animals under isoflurane anesthesia via the retro-orbital plexus/sinus and centrifuged for serum collection for HBsAg and HBV DNA measurements described below. At termination of study (Day 56), 100–200 mg of tissue was harvested from the left lateral liver lobe of all animals. […]\nAn indirect ELISA assay was used to measure amounts of H3K4me3 relative to total H3 (H3K4me3:H3) extracted from tissue, PBMC, or PHH samples. Amounts of H3, H3K4me3, and non-specific background from the secondary antibody (blank absorbance) were measured for each sample in independent ELISA wells. […]"}}}
{"smiles": "CCOC(=O)c1ccnc(CNCC(=O)N(CC)CCN(C)C)c1", "note": "[GS-5801]", "values": [{"measurement": "H3K4me3:H3 ratio in liver versus lung, kidney, PBMCs", "setting": "H3K4me3:H3 [1]", "value": "increased levels of the H3K4me3:H3 ratio in the liver compared to lung, kidney, or PBMCs at most doses tested"}, {"measurement": "HBsAg and HBeAg levels", "setting": "HBV GTC", "value": "reduction of HBsAg and HBeAg levels"}, {"measurement": "H3K4me3:H3 fold increase compared to vehicle treated PHH", "setting": "H3K4me3:H3 [2]; continuous dosing 10 μM, apparent saturation six days after initiation of dosing", "value": 4.8, "unit": "fold"}, {"measurement": "H3K4me3:H3 ratio associated with near 100% HBeAg inhibition on day 12", "setting": "H3K4me3:H3 [2]; short pulse treatment, 0.016–10 μM", "value": "~ 3"}, {"measurement": "H3K4me3:H3 fold increase", "setting": "H3K4me3:H3 [2]; single two-hour pulse dose 10 μM, day three", "value": 2.8, "unit": "fold"}, {"measurement": "liver H3K4me3:H3 fold increase", "setting": "H3K4me3:H3 [3]; Sprague Dawley rats, 10 or 30 mg/kg once daily for five days", "value": "4.2- to 4.3 fold"}, {"measurement": "liver H3K4me3:H3 fold increase compared to vehicle-treated animals", "setting": "H3K4me3:H3 [3]; Wistar Han rats, 10, 30, or 100 mg/kg p.o. once daily for seven days (dosing phase)", "value": "4.6- to 5.2 fold"}, {"measurement": "liver H3K4me3:H3 fold increase compared to vehicle treated animals", "setting": "H3K4me3:H3 [3]; rats, 100 mg/kg dose group, seven days off treatment (recovery phase)", "value": 2.7, "unit": "fold"}, {"measurement": "liver H3K4me3:H3, fold of vehicle animals", "setting": "H3K4me3:H3 [3]; rats, 10 and 30 mg/kg dose groups, seven days off treatment (recovery phase)", "value": "≤ 1.6", "unit": "fold"}, {"measurement": "H3K4me3:H3 ratio in liver versus lung, kidney, PBMCs", "setting": "H3K4me3:H3 [3]; rats, p.o. once daily for five days, 24 hours after last dose", "value": "increased levels of the H3K4me3:H3 ratio in the liver compared to lung, kidney, or PBMCs at most doses tested"}, {"measurement": "liver H3K4me3:H3 fold increase compared to vehicle-treated animals", "setting": "H3K4me3:H3 [4]; 30 mg/kg", "value": 2.9, "unit": "fold"}, {"measurement": "liver H3K4me3:H3 fold increase compared to vehicle-treated animals", "setting": "H3K4me3:H3 [4]; 100 mg/kg", "value": 3.3, "unit": "fold"}]}
